In PubChem BioAssay AID1259421 (Broad Institute, 2018):
“And” between values parts separate entries of the source, which are not always exact repeats. Identical values can stand only once. The entries are a selection whose mix differs from that of the whole data set. The source made the active and inactive calls. Rule as the data show it: active = activity change below about -70%; inconclusive = no clear call, values can overlap the other calls; inactive = above that.

Experiment: Toxoplasma gondii ME49Luc growth in HeLa cells, luciferase, no IFN-y, primary screen (AID 1259421)
Conditions: T. gondii ME49Luc in HeLa, 72 h, stronger effect = lower value, concentration not given here

Row | Compound | activity change, negative = inhibition
1 | O=P1(N(CCCl)CCCl)OCCCN1CCCl (configuration not stated) | inactive: 11.8%
2 | CN(C(=O)Cc1ccc(Cl)c(Cl)c1)[C@H]1CC[C@@]2(CCCO2)C[C@@H]1N1CCCC1 | inactive: 10.8%
3 | CN(C)C1(c2ccccc2)CCC2(CC1)OCCc1c2[nH]c2ccc(F)cc12 (configuration not stated) | inactive: -34.2%
4 | O=P(O)(O)F | inactive: -0.0478%
5 | CN(C(=O)Cc1ccc(Cl)c(Cl)c1)[C@H]1CCCC[C@@H]1N1CCCC1 | inactive: 25% and inactive: 7.73% and inactive: 17.2%
6 | O=C(O[C@H]1CN2CCC1CC2)C1NCc2ccccc2[C@@H]1c1ccccc1 (some centres not stated) | inactive: -1.42%
7 | CN(C(=O)Cc1ccc(Cl)c(Cl)c1)C1CCCCC1N1CCCC1 (configuration not stated) | inactive: 8.47%
